Experimental data: paper PMC4686915, “An engineered scorpion toxin analogue with improved Kv1.3 selectivity displays reduced conformational flexibility” (Scientific Reports, 2015)

Protein sequences, listed by entry. Tags and fused reporters are not part of them.
UniProt P22001, whole entry: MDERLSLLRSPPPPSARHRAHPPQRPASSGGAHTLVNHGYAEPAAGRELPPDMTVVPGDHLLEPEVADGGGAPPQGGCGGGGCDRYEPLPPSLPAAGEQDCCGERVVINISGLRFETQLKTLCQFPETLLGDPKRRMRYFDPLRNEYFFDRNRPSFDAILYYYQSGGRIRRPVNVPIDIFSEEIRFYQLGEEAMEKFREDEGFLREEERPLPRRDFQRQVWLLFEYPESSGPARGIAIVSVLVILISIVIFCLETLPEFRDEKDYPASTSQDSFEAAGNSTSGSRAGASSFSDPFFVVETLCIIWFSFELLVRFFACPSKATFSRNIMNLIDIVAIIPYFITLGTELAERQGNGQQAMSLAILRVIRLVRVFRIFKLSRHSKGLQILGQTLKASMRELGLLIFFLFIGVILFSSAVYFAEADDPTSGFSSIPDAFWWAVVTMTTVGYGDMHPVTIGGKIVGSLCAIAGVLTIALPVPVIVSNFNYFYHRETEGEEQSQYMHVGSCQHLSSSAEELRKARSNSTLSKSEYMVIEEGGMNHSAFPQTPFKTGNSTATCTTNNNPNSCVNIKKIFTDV
UniProt P16389, whole entry: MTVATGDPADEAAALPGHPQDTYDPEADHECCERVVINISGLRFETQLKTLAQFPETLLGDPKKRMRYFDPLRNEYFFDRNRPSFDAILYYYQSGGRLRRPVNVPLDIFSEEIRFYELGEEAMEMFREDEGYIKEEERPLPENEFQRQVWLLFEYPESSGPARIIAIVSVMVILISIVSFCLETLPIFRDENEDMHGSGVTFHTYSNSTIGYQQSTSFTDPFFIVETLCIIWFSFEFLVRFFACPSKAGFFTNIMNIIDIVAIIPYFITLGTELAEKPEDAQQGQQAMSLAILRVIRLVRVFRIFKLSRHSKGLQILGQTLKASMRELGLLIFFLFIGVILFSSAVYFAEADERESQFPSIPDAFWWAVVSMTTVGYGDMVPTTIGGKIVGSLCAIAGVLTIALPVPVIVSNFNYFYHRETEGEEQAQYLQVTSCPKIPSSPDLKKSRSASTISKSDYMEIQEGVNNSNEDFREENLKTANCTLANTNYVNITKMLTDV

Tests used:
Assay type in all cases: cell-based
hKv1.3 = biological target: T1, hKv1.3 (Homo sapiens, UniProt P22001); assay: Patch-clamp block of Kv1.3 currents in activated human lymphocytes
T1 construct: endogenous in cells

hKv1.2 = biological target: T2, hKv1.2 (Homo sapiens, UniProt P16389); assay: Patch-clamp block of Kv1.2 currents in transfected CHO cells
T2 construct: expressed in transfected cells; host or cells: CHO cells, transient transfection (Lipofectamine 2000), GFP plasmid co-transfected 10:1

mKv1.1 = assay: Patch-clamp block of mKv1.1 currents in L929 cells; conditions: 100 nM toxin, whole-cell, +50 mV
Method: (§1) mKv1.1 currents were measured on L929 cells stably expressing the channel. Cells were cultured as described earlier. CHO cells were transiently transfected with pcDNA3 vector containing the hKv1.2 gene or with pEGFP-C1 vector coding the KCa3.1 gene[10] using Lipofectamine 2000 (Invitrogen) reagent according to the manufacturer’s protocol. In case of Kv1.2 the pcDNA3 vector was co-transfected with the plasmid coding GFP in a ratio of 10:1 (channel plasmid:GFP). GFP-positive transfectants were identified with a Nikon TE2000U fluorescence microscope (Nikon, Tokyo, Japan) and were used for current recordings.
(§2) Solutions for whole-cell and outside-out patch-clamp measurements contained in mM: (bath: 145 NaCl, 5 KCl, 1 MgCl2, 2.5 CaCl2, 5.5 glucose, 10 HEPES, 0.1 mg/ml BSA, pH 7.35) and (pipette-filling solution for Kv channels: 140 KF, 2 MgCl2, 1 CaCl2, 10 HEPES, 11 EGTA, pH 7.22; for KCa3.1 channels: 150 K-aspartate, 5 HEPES, 10 EGTA, 8.7 CaCl2, 2 MgCl2, pH 7.22). Pipettes had 3-5-MΩ resistance in the bath. Series resistance compensation up to 85% was used.
(§3) The remaining current fraction at a given toxin concentration is RF=I/I0, where I and I0 are current amplitudes in the presence and absence of the toxin, respectively. […]
(§4) A. Kv1.1 currents were measured in an L929 cell stably expressing the mKv1.1 channel. […]
(§5) currents were measured in a CHO cell transiently transfected with the KCa3.1 gene. […]

hKCa3.1 = assay: Patch-clamp block of KCa3.1 currents in transfected CHO cells; conditions: 100 nM toxin, whole-cell, voltage ramps -100 to +50 mV
Method: as §1, §2, §3, §4, §5

Kv1.3 [1] = biological target: T3, Kv1.3 (Homo sapiens, UniProt P22001); assay: Wash-out kinetics of Kv1.3 current block; parameters: endogenous in cells
Kv1.3 [2] = biological target: T3, Kv1.3; assay: Association rate (wash-in kinetics) to Kv1.3; parameters: endogenous in cells; host or cells: human lymphocytes (inferred); conditions: calculated from TON and TOFF cell by cell; low concentrations for wash-in; unit meant 10^7 M-1s-1
Text: Supplementary Figure S5. Association rates of sAnTx and [N17A/F32T]-AnTx to Kv1.3 […]
Normalized current amplitudes are plotted as a function of time during the development of block […]
and recovery from block by the toxins. Depolarizing pulses were applied every 15 s. Data points […]
were fit with single exponential functions and TON (wash-in) and TOFF (wash-out) time constants […]
were used to calculate kON values. […]
kON values characterizing the association rate were obtained from toxin wash-in kinetics at lower […]
concentrations (at high concentrations block developed too quickly to be reliably fit) and wash-out […]
kinetics (following high concentration block) on a cell-by-cell basis to exclude perfusion system […]
positioning effects. kON was calculated as: […]
k = 1 − TON × kOFF , k = 1
(also on this page, place not known: De polarizing T T OFF cell -by-cell kON kOFF ON Wash-in Time (s) 0 50 100 Relative amplitude 0.0 0.5 1.0 sAnTx (1 nM) N17/F32T (1 nM) Wash-out Time (s) 0 50 100 150) […]
(1 picture or pasted object on this page, not shown here)

[3] = perfusion with toxin-free solution

## CSCC[C@@H]1NC(=O)[C@@H]2CSSC[C@H](NC(=O)[C@H](CCC(=O)O)NC(=O)[C@H](CCCCN)NC(=O)[C@@H]3CCC(=O)N3)C(=O)N[C@@H]([C@@H](C)O)C(=O)NCC(=O)N3CCC[C@H]3C(=O)N[C@@H](CCC(N)=O)C(=O)N[C@@H](Cc3c[nH]cn3)C(=O)N[C@H]3CSSC[C@H](NC(=O)[C@H](CCCCN)NC(=O)[C@H](CCCNC(=N)N)NC(=O)[C@H](CC(N)=O)NC1=O)C(=O)N[C@@H](CCCCN)C(=O)N[C@H]1CSSC[C@H](NC(=O)[C@H](Cc4ccccc4)NC(=O)[C@H](CC(N)=O)NC(=O)[C@H]([C@@H](C)O)NC3=O)C(=O)N[C@@H](CCCNC(=N)N)C(=O)N[C@@H](CCCCN)C(=O)N[C@@H](CC(N)=O)C(=O)N[C@@H](CCCCN)C(=O)N[C@@H](CSSC[C@@H](C(=O)N[C@@H](CCCCN)C(=O)O)NC(=O)[C@H](CC(N)=O)NC(=O)[C@H](Cc3ccccc3)NC1=O)C(=O)N[C@@H]([C@@H](C)O)C(=O)N[C@@H](Cc1c[nH]cn1)C(=O)NCC(=O)N[C@@H](CCCCN)C(=O)N2 [sAnTx]
hKv1.3; 0.3 nM sAnTx, equilibrium block
  block of Kv1.3 current, in words: significant reduction of the current amplitude
hKv1.3; Hill fit of dose-response on Kv1.3
  Hill coefficient H, Kv1.3: 1.0
hKv1.3; [3]
  reversibility of Kv1.3 block: full recovery of the current
hKv1.2; Hill fit of dose-response on Kv1.2
  Hill coefficient H, Kv1.2: 0.8
hKv1.2; [3]
  reversibility of Kv1.2 block: reversibly blocked
mKv1.1
  effect on Kv1.1 current, in words: Neither sAnTx nor the single-substituted analogues caused significant reduction
hKCa3.1
  effect on KCa3.1 current, in words: Neither sAnTx nor the single-substituted analogues caused significant reduction
Kv1.3 [1]; Kv1.3, human lymphocytes, +50 mV pulses from −100 mV every 15 s, single exponential fit, mean ±SEM, n = 3 sAnTx, 4 N17A, 6 [F32T]-AnTx, 6 [N17A/F32T]-AnTx, 1 nM sAnTx, 3 nM variants
  TOFF, wash-out time constant: 52.9 ± 6.1 s
Kv1.3 [1]; wash-out time constants
  dissociation from Kv1.3, in words: dissociate from Kv1.3 more slowly
Kv1.3 [2]
  kon: 1.78e+07 M⁻¹ s⁻¹
